{"source": "patent US20190350938A1", "about": "(BROAD INSTITUTE, published 2019)", "biological_target": "P2D SLC16A11^REF-V5 (human) (UniProt Q8NCK7)", "assay": "anti-V5 IP of P2D SLC16A11REF-V5 from HEK293T lysate, iTRAQ quantitative MS; enrichment vs empty vector control IP"}
{"substance": "ATP1A1 (from UniProt P05023 1-1023)", "values": [{"measurement": "BA log fold change (log fold change)", "result": 1.1}]}
